This is an account of results in patent US10633374B2, “Small molecule based antibody-recruiting compounds for cancer treatment” (YALE UNIVERSITY, priority 2015, dated 2020).

Chains of the proteins cited; added tags and fusions are not shown. Residues count along the entry.
UniProt Q03405, 23-305 limits assumed: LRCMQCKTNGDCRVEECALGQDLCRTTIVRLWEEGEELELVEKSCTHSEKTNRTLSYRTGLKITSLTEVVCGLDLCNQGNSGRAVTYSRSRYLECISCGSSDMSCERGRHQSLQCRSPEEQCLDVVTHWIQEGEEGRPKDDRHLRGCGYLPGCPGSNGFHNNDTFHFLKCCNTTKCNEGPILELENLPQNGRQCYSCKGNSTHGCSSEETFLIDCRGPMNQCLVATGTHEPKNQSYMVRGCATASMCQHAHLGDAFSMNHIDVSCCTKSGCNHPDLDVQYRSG

Structures are written as SMILES.

One assay has as its target immobilized uPAR (Homo sapiens, UniProt Q03405). Nature of the assay: Direct ELISA binding assay on immobilized uPAR. The note with it: tested form: ammonium formate salt. The method, then:
Selected ARM-U2 derivatives were assayed for their ability to bind recombinant uPAR using a fluorescence quenching assay. The compounds stored at −20° C. as DMSO stocks were diluted into PBS aliquots at a fixed 50 nM concentration. Increasing concentrations of recombinant uPAR were mixed with each compound containing aliquot and the fluorescence of the solution measured following 1 h equilibration times. […] To confirm that the observation of uPAR dependent fluorescence quenching was indeed due to specific binding to uPAR and to validate ARM-U2 binding to uPAR specifically via the uPA binding site, a direct binding ELISA assay was developed. In this assay, clear 96-well high-binding plates from CoStar, were loaded with 100 μl/well of 50 nM recombinant uPAR 807-UK-100-CF from R&D systems prepared from a 100 μg/ml (approx. 2.1 μM) stock of uPAR in PBS and left overnight at room temperature to equilibrate. Following equilibration, the plate was washed with wash buffer 1× (400 μl/well of 0.05% Tween/PBS), blotted dry and blocked for 1 hr with 300 ul/well of 2% BSA/PBS. Following blocking, the plate was washed with 400 ul of the wash buffer and blotted dry. […] The absorbance at 450 nm was measured using an in-house Perkin-Elmer fluorescence plate reader.
Background: An ELISA detects its analyte on a solid surface through an enzyme-linked reagent.

The target of a further assay is uPAR (uPA binding site) (Homo sapiens, UniProt Q03405). Nature of the assay: Competitive ELISA uPAR binding assay (immobilized urokinase). The note with it: tested form: ammonium formate salt. The method, then: The affinity of ARM-U2 derivatives differing in both the length of the DNP-linker substituted at position 2 of ring C and the display of negative charge density (FIG. 8, Table 1) for uPAR were assayed using a competitive ELISA binding assay. The assay involves the immobilization of urokinase, a natural high affinity ligand for uPAR followed by the addition of a fixed concentration of recombinant uPAR protein and increasing concentrations of ARM-U2 which competes with urokinase for binding to the uPA binding site of uPAR. Following several washing steps, the amount of uPAR bound is quantified by a biotinylated anti-uPAR antibody and avidin-HRP and can be fit to a competitive binding model allowing for the extraction of the uPAR/ARM-U2 Kd.
All ARM-U2 derivatives were assessed for their ability to bind selectively to recombinant uPAR in vitro using a competitive ELISA binding assay. […] Selective binding to uPAR by ARM-U2 at the uPA binding site competes with uPAR-uPA binding which is required for a positive UV 450 nm absorbance signal. Increasing concentrations of ARM-U2 displace increasing amounts of uPAR from uPA which is detected by anti-uPAR/biotin labeled antibodies followed by avidin-HRP. […]

On to `O=C1c2ccccc2-c2onc3c(N4CCC[C@H](C(=O)NCCCOCCOCCOCCCNc5ccc([N+](=O)[O-])cc5[N+](=O)[O-])C4)cc(Nc4ccc(S(=O)(=O)O)cc4S(=O)(=O)O)c1c23`, for which the “binding to immobilized uPAR vs parent derivative” value at immobilized uPAR (direct ELISA) is “much higher affinity than parent derivative 1-ABT-1”. Moreover, on immobilized uPAR (plus 100 nM uPA-ATF), the “binding to immobilized uPAR after exogenous uPA-ATF” value is listed as “displacement of 6-ABT-1 from uPAR”. Besides, the Kd at uPAR (uPA binding site) (read-out: calculated dissociation constant, uPAR binding) was 12 nM. Besides, on uPAR (uPA binding site), the “uPAR-binding affinity relative to parent ARM-U2 derivative 1-ABT-1” value is reported as “significant increase in affinity”.
